Results taken from patent US11864911B2, “Methods, apparatuses, and systems for inductive heating of foreign metallic implants” (THE BOARD OF REGENTS OF THE UNIVERSITY OF TEXAS SYSTEM, priority 2016, dated 2024).

Test system: Pseudomonas aeruginosa (PA01) biofilm
Test: ciproflaxin on PA01 biofilm on metal washers with or without prior AMF exposure, bacterial number enumerated
Conditions: concentrations used, without previous initial AMF exposure

## O=C(O)c1cn(C2CC2)c2cc(N3CCNCC3)c(F)cc2c1=O [ciproflaxin, ciprofloxacin]
  therapeutic effect for reducing the biofilm: not therapeutic
